Test results from US20060121042A1 (AstraZeneca / MedImmune, published 2006).

Sequences of proteins named here, by UniProt entry; tags and fusion partners are left off. Residues count along the entry.
UniProt P29317, 25-534 limits assumed: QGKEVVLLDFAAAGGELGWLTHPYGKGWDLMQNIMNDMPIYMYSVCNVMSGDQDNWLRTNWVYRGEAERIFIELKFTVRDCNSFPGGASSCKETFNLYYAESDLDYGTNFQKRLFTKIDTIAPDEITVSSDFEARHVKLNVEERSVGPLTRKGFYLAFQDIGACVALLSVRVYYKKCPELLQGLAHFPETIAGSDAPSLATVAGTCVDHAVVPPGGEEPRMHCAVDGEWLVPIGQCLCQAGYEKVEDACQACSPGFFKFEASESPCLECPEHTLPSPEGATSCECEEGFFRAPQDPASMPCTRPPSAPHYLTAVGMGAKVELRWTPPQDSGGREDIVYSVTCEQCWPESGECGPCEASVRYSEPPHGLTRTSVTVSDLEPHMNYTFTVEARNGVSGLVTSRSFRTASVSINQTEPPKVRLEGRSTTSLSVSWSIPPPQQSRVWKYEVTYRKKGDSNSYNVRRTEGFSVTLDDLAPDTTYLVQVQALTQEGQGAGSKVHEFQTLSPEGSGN
UniProt Q03145, 26-535 limits assumed: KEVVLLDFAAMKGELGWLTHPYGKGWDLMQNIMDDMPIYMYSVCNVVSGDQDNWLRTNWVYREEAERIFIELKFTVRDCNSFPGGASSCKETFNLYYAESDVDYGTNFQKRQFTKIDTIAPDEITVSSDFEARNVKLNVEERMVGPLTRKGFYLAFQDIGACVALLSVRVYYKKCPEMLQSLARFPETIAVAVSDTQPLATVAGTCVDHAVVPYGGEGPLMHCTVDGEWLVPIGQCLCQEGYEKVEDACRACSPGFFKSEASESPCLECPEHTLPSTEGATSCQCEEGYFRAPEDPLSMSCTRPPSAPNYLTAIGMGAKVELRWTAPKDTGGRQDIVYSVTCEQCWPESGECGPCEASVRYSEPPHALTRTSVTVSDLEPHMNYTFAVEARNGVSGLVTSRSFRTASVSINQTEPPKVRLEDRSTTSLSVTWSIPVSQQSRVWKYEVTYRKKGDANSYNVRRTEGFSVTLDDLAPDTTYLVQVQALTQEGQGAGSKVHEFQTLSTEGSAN

Columns and labels:
[1] = target: T1, hEphA2 (human, UniProt P29317); experiment: ELISA
T1 construct: also called human EphA2

[2] = target: mEph A2 (mouse, UniProt Q03145); experiment: ELISA
Further: test concentration or dose not given here.

B1: 1C1 (antibody, V domains shown)
VH: EVQLLESGGGLVQPGGSLRLSCAASGFTFSHYMMAWVRQAPGKGLEWVSRIGPSGGPTHYADSVKGRFTISRDNSKNTLYLQMNSLRAEDTAVYYCAGYDSGYDYVAVAGPAEYFQHWGQGTLVTVSS
VL: DIQMTQSPSSLSASVGDRVTITCRASQSISTWLAWYQQKPGKAPKLLIYKASNLHTGVPSRFSGSGSGTEFSLTISGLQPDDFATYYCQQYNSYSRTFGQGTKVEIK
- ELISA O.D. value [1]: 0.146
- ELISA O.D. value [2]: 0.045
